Consider two compounds from patent USRE38460E1 (priority 1994, dated 2004).

Amino acid sequences for entries named in this document (tags omitted). Residues count along the entry.
UniProt Q9JKC1, 24-597: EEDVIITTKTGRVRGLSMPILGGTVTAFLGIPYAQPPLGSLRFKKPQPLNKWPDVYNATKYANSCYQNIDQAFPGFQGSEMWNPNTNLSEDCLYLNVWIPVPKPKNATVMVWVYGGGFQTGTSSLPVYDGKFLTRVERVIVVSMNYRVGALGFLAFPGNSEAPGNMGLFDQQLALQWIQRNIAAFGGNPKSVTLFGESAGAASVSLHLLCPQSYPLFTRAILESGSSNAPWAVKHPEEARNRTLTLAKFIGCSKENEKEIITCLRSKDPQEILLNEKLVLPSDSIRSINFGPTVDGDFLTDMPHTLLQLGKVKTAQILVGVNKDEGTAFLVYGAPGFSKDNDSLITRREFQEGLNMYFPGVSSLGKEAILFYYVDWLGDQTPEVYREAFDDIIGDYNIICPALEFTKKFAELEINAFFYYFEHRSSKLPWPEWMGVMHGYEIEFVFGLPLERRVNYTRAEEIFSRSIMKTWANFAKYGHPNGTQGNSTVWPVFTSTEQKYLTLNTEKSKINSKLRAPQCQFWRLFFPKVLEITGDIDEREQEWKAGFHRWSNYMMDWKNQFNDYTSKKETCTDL

What all share (assay type): biochemical
For one assay, the target named is T1, AChE (Rattus norvegicus, UniProt P37136).
T1 construct: 0.1-0.2 ml of enzyme solution (red cell membrane or serum of rat) was added; from tissue; host or cells: rat tissue
T1 sequence (P37136 32-614): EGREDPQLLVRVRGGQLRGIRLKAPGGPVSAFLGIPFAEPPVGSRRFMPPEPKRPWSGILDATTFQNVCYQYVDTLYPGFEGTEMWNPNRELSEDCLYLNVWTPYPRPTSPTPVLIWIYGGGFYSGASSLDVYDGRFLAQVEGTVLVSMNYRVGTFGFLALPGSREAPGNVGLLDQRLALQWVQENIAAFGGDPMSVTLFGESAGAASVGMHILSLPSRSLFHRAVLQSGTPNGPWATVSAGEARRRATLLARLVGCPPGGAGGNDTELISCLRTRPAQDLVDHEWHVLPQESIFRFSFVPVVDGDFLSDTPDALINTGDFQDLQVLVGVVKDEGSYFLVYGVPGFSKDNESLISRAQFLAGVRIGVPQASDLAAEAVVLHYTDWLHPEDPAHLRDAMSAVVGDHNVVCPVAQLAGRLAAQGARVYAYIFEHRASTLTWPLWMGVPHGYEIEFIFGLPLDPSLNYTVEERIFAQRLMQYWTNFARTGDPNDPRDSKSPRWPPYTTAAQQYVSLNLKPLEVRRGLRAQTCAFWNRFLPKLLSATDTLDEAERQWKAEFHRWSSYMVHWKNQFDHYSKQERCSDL
As to conditions: Table 6.

Assay [1] concerns the target T2, acetylcholinesterase (AChE) (Rattus norvegicus, UniProt P37136).
T2 construct: from tissue; host or cells: homogenate of rat cortex
T2 sequence (P37136 32-614): T1 sequence (P37136 32-614)
As to conditions: Table 2; cortex AChE, serum BuChE.

The target of assay [2] is T3, butyrylcholinesterase (BuChE) (Rattus norvegicus, UniProt Q9JKC1).
T3 construct: from tissue; host or cells: rat serum
Description: In-vitro anticholinesterase effect, colorimetric method (Ellman), BuChE from rat's serum.

As for `CC=C1C2C=C(C)CC1(N=Cc1cc(OC)c(OC)c(OC)c1)c1ccc(=O)[nH]c1C2` (centres unmarked) [derivative No. 21], the BuChE/AChE on AChE was greater than 500. Moreover, the “IC50 ratio BuChE/AChE” value in assay [1] worked out at 1121.3.

In turn, `CC=C1C2C=C(C)CC1(N=Cc1cccc(O)c1O)c1ccc(=O)[nH]c1C2` (centres unmarked) [derivative No. 24] returned a BuChE/AChE on AChE greater than 100. The compound further displayed an IC50 in assay [2] of 158 µM. In assay [1], the “IC50 ratio BuChE/AChE” value amounted to 1585.0.
